Tested on: phosphorylation of AKT, S6, FOXO1/3a in OCCA cells
Assay: Immunoblotting of PI3K/mTOR signaling in OCCA cells
Assay type: cell-based
Settings: OVISE
Description: Signals were detected using BioRAD western blotting systems (BioRAD, Hercules, CA) with the detection reagents ECL advance and ECL select (GE Healthcare, Piscataway, NJ).

In the case of `CO[C@H]1C[C@@H]2CC[C@@H](C)[C@@](O)(O2)C(=O)C(=O)N2CCCC[C@H]2C(=O)O[C@H]([C@H](C)C[C@@H]2CC[C@@H](O)[C@H](OC)C2)CC(=O)[C@H](C)/C=C(\C)[C@@H](O)[C@@H](OC)C(=O)[C@H](C)C[C@H](C)/C=C/C=C/C=C/1C` [rapamycin], the “dose suppressing p-S6” value is reported as no less than 2.45 nM.
